What was measured:
[1] = molecular target: human thyroid receptor beta ligand-binding domain (THR-β) (Homo sapiens, UniProt P10828); assay: TR-FRET thyroid receptor beta coactivator assay (THR biochemical assay)
[2] = Microsomal stability assay, human; details: 1 μM, time point not given
Description: (§1) The assay was carried out in 96-well microtiter plates. Test compounds, at a final concentration of 1 μM was incubated at 37° C. with 0.5 mg/mL liver microsomes, and +/−1 mM NADPH in 100 mM potassium phosphate, pH 7.4 buffer with 3.3 mM MgCl2. […] At each of the time points (0, 15, 30 and 60 min), incubation was stopped by adding 150 μL of the quenching solutions (100% acetonitrile, 0.1% formic acid) and subsequently the mixtures were vortexed vigorously for 20 min and centrifuged at 4,000 RPM at 4° C. The supernatants (80 μL) were transferred to a clean 96-well plate and analyzed by LC/MS/MS. Verapamil at 1 μM with a final 0.1% DMSO was included as a positive control to verify assay performance.

By UniProt entry, the sequences of proteins in these tests, tags left out. Residues count along the entry.
UniProt P10828, whole entry: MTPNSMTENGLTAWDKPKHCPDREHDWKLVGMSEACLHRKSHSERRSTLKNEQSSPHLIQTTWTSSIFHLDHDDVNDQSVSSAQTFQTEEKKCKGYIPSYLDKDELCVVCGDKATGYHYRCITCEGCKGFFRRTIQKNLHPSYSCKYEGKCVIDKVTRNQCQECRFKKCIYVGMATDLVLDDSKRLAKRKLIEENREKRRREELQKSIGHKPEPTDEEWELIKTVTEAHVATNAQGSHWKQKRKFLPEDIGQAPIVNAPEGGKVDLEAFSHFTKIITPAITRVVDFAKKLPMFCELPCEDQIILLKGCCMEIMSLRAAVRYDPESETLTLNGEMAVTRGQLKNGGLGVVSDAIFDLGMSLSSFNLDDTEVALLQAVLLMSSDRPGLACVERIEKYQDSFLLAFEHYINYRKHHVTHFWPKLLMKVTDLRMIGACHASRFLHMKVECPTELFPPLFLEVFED
UniProt P10828, 217-461 limits assumed: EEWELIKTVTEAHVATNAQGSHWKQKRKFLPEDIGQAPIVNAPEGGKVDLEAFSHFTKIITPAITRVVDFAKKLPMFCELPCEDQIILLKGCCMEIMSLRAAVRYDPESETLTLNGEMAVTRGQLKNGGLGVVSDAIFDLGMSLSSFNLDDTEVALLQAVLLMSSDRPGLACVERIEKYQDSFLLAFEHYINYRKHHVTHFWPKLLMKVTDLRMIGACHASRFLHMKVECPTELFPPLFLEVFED
UniProt P10827, 1-410 isoform 2: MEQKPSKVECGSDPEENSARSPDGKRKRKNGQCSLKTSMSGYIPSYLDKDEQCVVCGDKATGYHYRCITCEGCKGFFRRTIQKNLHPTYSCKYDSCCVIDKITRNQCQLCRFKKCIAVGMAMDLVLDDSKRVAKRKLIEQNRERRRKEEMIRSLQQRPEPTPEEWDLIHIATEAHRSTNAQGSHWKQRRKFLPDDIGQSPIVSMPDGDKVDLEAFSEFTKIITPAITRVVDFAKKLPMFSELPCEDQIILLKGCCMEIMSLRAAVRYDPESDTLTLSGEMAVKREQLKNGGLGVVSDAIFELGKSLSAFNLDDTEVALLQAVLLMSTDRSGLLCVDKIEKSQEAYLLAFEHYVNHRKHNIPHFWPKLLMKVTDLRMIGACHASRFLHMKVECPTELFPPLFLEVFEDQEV
UniProt P10827, 163-410 isoform 2 limits assumed: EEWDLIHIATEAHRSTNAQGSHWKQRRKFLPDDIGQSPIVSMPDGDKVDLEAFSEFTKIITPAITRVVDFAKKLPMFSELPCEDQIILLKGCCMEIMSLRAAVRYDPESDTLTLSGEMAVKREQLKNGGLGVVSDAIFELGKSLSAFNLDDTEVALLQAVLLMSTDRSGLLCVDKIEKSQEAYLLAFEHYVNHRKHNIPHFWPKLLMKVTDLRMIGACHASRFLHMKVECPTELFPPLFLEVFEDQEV
UniProt P19793, whole entry partner: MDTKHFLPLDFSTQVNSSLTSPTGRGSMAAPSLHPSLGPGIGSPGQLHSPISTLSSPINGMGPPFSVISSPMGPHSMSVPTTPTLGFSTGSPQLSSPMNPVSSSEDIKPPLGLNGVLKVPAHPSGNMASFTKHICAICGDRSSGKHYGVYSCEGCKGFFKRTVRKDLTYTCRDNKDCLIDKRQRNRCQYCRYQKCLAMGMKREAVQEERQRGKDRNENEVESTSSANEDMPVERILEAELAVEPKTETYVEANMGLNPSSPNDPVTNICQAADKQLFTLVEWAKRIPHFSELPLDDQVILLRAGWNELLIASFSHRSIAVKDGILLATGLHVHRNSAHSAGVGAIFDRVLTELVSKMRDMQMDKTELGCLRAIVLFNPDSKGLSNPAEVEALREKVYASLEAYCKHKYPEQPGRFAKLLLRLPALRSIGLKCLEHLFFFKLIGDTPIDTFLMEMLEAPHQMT

[3] = Microsomal stability assay, rat; details: 1 μM, time point not given
Description: as §1

[4] = Hepatocyte stability assay, mouse; details: 1 μM, time point not given
Description: (§2) Cryopreserved hepatocytes were taken from the liquid nitrogen tank and thawed quickly in a 37° C. water bath. As soon as the cells pulled away from the vial wall, they were decanted into 48 mL of warm thawing (HT) medium. Cells were centrifuged for 5 minutes at 420 RPM (50 g). After removing the supernatant, the pellets were re-suspended in 4 mL of warm Dulbecco's Modified Eagle Medium (DMEM). Cell density was counted by a hemocytometer.
(§3) The assay was carried out in 96-well microtiter plates. The study compound was incubated at 1 μM with 0.5 million cells/mL hepatocytes in DMEM for 0, 60, 120, and 180 minutes at 37° C. The volume of the incubation mixture was 37 μL with a final DMSO content of 0.1%. At each time point, the incubation was stopped by the addition of 150 μL quenching solution (100% acetonitrile, 0.1% formic acid containing the internal standard bucetin at 15 nM). Subsequently, the mixtures were vortexed for 20 minutes and centrifuged at 4,000 RPM at 10° C. An aliquot of 80 μL of the supernatant was transferred to a clean 96-well plate and analyzed by LC/MS/MS. Midazolam at 1 μM with a final DMSO content of 0.1% was included as a positive control to verify the assay performance.

[5] = Hepatocyte stability assay, rat; details: 1 μM, time point not given
Description: as §2, §3

THR alpha = THR alpha (Homo sapiens, UniProt P10827); assay: HEK293T THRalpha/RXR luciferase reporter assay; details: read-out: EC50 THR-α (HEK 293 Activity); HEK293T TRE-luciferase reporter, 18-24 h
[6] = Hepatocyte stability assay, human; details: 1 μM, time point not given
Description: as §2, §3

THR beta = THR beta (Homo sapiens, UniProt P10828); assay: HEK293T THRbeta/RXR luciferase reporter assay
[7] = Microsomal stability assay, mouse; details: 1 μM, time point not given
Description: as §1

[8] = molecular target: human thyroid receptor alpha ligand-binding domain (THR-α) (Homo sapiens, UniProt P10827); assay: TR-FRET thyroid receptor coactivator assay (THR biochemical assay), alpha; details: read-out: EC50 THR-α (Biochemical Activity), SRC2-2 coactivator peptide

CC(c1cc(Oc2c(Cl)cc(-n3nc(N)c(=O)[nH]c3=O)cc2Cl)n[nH]c1=O)C1CC1 (single isomer, unassigned) [Compound 1a]
THR-β Selectivity (Biochemical Activity) ([1]; THR-β over THR-α, TR-FRET assay): 6 | EC50 ([1]; read-out: EC50 THR-β (Biochemical Activity), TR-FRET, SRC2-2 coactivator peptide): 0.063 µM | Liver Microsomes % Remaining [2]: (93) % | Liver Microsomes % Remaining [3]: (91) % | Hepatocytes % Remaining [4]: (101) % | Hepatocytes % Remaining [5]: (106) % | EC50 (THR alpha): 0.715 µM | Hepatocytes % Remaining [6]: (86) % | THR-β Selectivity (HEK 293 Activity) (THR beta; THR-β over THR-α, HEK293T reporter): 6.5 | EC50 (THR beta; read-out: EC50 THR-β (HEK 293 Activity), HEK293T TRE-luciferase reporter, 18-24 h): 0.11 µM | Liver Microsomes % Remaining [7]: (92) % | EC50 [8]: 0.399 µM

Source: patent US12630537B2, “Pyridazinone and methods of use thereof” (ALIGOS THERAPEUTICS, INC., priority 2020, dated 2026)
